A word on the Kd: it is the free concentration of one partner at which half of the binding sites on the other are occupied at equilibrium, for simple one-to-one binding. Read a low Kd as a tighter complex.

Data on two substances can be found in paper PMC8810934.

In this experiment the target is F-actin from rabbit muscle (rabbit) (UniProt P68135). In words: co-sedimentation; 2 µM ABD with F-actin (3–160 µM), 30 min at room temperature in F-buffer (10 mM Tris pH 7.5, 150 mM NaCl, 0.5 mM ATP, 2 mM MgCl2, 1 mM DTT); spun at 50,000 RPM, 30 min, 25 °C; unbound ABD in the supernatant quantified from Coomassie gels; one site specific binding fit with Bmax constrained to 1.

As for “N-terminally truncated human β-III-spectrin ABD with L253P mutation (from UniProt O15020 52-2390) (domain or fragment)”, the Kd was 234 µM.
In turn, “wild-type human β-III-spectrin actin-binding domain (ABD) with intact N-terminus (domain or fragment)” yielded a Kd of 73.6 µM.
